What is called inhibition is the drop in the measured response relative to a control, in per cent.

Sequences of proteins named here, by UniProt entry; tags and fusion partners are left off.
UniProt P61088, whole entry, looked up: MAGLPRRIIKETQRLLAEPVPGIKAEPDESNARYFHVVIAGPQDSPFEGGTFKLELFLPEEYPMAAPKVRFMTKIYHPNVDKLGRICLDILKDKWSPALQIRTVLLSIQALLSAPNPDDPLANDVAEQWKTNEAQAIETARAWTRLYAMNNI

Molecules are shown by their SMILES. The list shows a part of the results, in another mix than the full data. Calls of active or inactive are those of the source. Rule as the data show it: active = inhibition above about 45% (passing the limit was not always enough); inconclusive = no clear call, values can overlap the other calls.

This assay has as its target Ubiquitin-conjugating enzyme E2 N (Homo sapiens) (UniProt P61088). In words: blockers of UBC13 ubiquitin chain synthesis – biochemical, TR-FRET, uHTS, primary screen (AID 485273). The settings on record: UBC13 polyubiquitin chain formation, at 20 µM, stronger effect = higher value. In general terms: In TR-FRET formats the signal depends on donor and acceptor labels being close together.
Consider `CCC(=O)N(c1ccccc1)C1(COC)CCN(CCc2cccs2)CC1`, for which the inhibition was inactive: 2.9%.
As for `CCC(=O)N(c1ccccc1)C1(COC)CCN(CCn2nnn(CC)c2=O)CC1`, the figure is inactive: -19%.

The values above are taken from PubChem BioAssay AID485273 (Sanford-Burnham Center for Chemical Genomics, 2010).
